# ChEMBL document CHEMBL6121069, “A Medicinal Chemistry Perspective on Protein Tyrosine Phosphatase Nonreceptor Type 2 in Tumor Immunology” (J Med Chem, 2025)
# Target: T1, Tyrosine-protein phosphatase non-receptor type 1 (Homo sapiens, UniProt P18031)
# T1 sequence (P18031 whole entry): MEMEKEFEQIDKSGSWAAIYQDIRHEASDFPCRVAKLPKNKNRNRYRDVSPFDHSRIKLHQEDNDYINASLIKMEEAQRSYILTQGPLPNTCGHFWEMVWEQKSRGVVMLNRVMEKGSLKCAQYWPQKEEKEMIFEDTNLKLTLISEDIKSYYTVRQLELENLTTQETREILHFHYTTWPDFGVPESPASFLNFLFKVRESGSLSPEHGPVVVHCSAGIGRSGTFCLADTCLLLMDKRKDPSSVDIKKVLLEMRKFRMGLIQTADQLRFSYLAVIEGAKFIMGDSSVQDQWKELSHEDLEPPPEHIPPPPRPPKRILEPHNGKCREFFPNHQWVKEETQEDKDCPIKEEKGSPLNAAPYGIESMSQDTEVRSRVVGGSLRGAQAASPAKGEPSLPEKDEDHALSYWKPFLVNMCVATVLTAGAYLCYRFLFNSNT
compound,measurement,value
O=C(O)COc1c(C(=O)O)sc2ncccc12,Ki,230 nM
